Measured values from publication PMC7734623 (Antiviral chemistry & chemotherapy, 2012).

Key:
[1] = Hydrolytic stability of DMSO stock solution under freezing–; conditions: hygroscopic DMSO stock solution
[2] = system: primary human peripheral blood mononuclear cells; experiment: Cytotoxicity on PBMCs; conditions: PBMC

For “[1,4-Bis(4-hydroxyphenyl)butane-1,4-dione – 1,4-bis(4-methoxyphenyl)butane-1,4-dione (7) – (2S,2′S)-2,2′-{[(tricyclo[3.3.1.1^3,7]dec-1-ylamino)methanediyl] bis(pteroylimino)}dipentanedioic acid (0.2:1:1)]×3 H2O×0.4 acetone [Compound 9]”, the “hydrolytic stability (in words)” value [1] was “hydrolytic instability”, the CC50 ([2]; experiment 1) was 44.9 µM and the CC50 ([2]; experiment 2) was 44.9 µM.
